Assays:
[1] = molecular target: Gamma-aminobutyric acid receptor subunit alpha-6 (Homo sapiens, UniProt Q16445)
[2] = molecular target: Gamma-aminobutyric acid receptor subunit alpha-4 (Homo sapiens, UniProt P48169)

Chains of the proteins cited; added tags and fusions are not shown.
UniProt Q16445, whole entry: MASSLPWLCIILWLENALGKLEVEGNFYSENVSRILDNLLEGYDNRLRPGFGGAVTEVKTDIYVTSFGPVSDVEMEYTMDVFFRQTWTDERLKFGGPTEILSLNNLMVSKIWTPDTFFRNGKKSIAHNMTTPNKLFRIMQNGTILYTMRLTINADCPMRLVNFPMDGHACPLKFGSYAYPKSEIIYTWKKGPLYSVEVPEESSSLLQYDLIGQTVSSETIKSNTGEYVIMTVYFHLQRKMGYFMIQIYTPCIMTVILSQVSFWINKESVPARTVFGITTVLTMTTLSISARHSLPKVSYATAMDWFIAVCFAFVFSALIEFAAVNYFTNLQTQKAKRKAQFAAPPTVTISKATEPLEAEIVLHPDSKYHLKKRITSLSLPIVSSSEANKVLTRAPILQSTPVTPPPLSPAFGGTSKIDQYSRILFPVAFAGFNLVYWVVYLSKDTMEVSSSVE
UniProt P48169, whole entry: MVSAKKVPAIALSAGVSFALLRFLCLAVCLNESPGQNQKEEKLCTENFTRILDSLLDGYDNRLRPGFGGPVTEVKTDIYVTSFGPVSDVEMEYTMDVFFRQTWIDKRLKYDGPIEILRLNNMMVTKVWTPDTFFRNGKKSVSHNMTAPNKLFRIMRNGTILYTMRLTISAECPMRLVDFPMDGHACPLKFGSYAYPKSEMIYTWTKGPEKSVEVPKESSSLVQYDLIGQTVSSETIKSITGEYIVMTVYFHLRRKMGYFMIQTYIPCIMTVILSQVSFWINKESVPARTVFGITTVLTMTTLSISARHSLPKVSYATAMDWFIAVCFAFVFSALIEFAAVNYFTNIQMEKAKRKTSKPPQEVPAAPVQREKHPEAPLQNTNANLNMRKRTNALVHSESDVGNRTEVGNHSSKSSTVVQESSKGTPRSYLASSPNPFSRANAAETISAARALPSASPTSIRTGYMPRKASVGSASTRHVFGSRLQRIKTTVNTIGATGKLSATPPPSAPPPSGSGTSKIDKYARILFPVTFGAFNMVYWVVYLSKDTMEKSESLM

| Compound | Ki [1] | Ki [2] |
| --- | --- | --- |
| CCOC(=O)c1cc2c(cn1)[nH]c1ccccc12 | 4460 nM | – |
| CCOC(=O)c1ncn2c1CN(C)C(=O)c1cc(N=[N+]=[N-])ccc1-2 [RO-154513] | – | 2.62 nM |
